Molecular target: human proprotein convertase subtilisin/kexin type 9 (PCSK9) (human, UniProt Q8NBP7 153-692)
Assay: BLI

By UniProt entry, the sequences of proteins in these tests, tags left out. Residues count along the entry.
UniProt Q8NBP7, 153-692: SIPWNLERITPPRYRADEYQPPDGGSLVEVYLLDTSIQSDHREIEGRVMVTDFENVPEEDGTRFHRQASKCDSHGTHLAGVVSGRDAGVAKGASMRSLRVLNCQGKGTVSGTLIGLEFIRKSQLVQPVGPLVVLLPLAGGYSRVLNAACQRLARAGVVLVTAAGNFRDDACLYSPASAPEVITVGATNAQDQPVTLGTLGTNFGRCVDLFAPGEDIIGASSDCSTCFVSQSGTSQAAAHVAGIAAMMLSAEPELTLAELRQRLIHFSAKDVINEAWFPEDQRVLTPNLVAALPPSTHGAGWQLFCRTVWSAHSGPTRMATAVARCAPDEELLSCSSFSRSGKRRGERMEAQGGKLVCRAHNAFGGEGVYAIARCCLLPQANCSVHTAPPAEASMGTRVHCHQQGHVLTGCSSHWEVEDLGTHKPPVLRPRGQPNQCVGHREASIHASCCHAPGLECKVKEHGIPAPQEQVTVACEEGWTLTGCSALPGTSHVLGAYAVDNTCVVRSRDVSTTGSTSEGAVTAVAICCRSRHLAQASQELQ

B1: 1D05 Fab (Fab, V domains shown)
VH: QVQLVQSGAEVKKPGSSVKVSCKASGGTFNSHAISWVRQAPGQGLEWMGGINPILGIANYAQKFQGRVTITADESTSTAYMELSSLRSEDTAVYYCARHYEIQIGRYGMNVYYLMYRFASWGQGTLVTVSS
VL: DIQMTQSPSSLSASVGDRVTITCRASQGIRSALNWYQQKPGKAPKLLIYNGSTLQSGVPSRFSGSGSGTDFTLTISSLQPEDFAVYYCQQFDGDPTFGQGTKVEIK
Work on B1 yielded a Kd of 0.0158 µM.
